The subject of the assay is Salmonella spp. (20). In words: MIC, CLSI broth microdilution. The assay is classed as cell-based.

The results in this text go back to patent publication US9439918B2 (priority 2008, dated 2016).

What is called MIC50 is the lowest concentration that inhibits either 50% of growth or 50% of the strains tested, depending on the study. Higher therefore signals weaker potency. Broadly, the MIC90 is an inhibitory concentration at the 90% level, which refers to growth in some studies and to a panel of isolates in others. The low end stands for greater potency, the high end for weaker potency.

As to `CCC[C@@H]1C[C@@H](C(=O)N[C@@H]([C@H]2O[C@H](SC)[C@H](O)[C@@H](O)[C@H]2O)[C@H](C)Cl)N(C)C1` [Clindamycin], the MIC50 was > 4 mg/L and the MIC90 is > 4 mg/L.
